Data as given in patent publication EP1370276B1, “INTERCELLULAR COMMUNICATION FACILITATING COMPOUNDS AND THEIR MEDICAL USE” (Zealand Pharma A/S, priority 2001, dated 2002).

Tested on: ventricular reentry arrhytmias
Test: Ventricular reentry arrhythmias in dogs after coronary artery occlusion
Type: in vivo
Experimental: Three dogs were studied in the anesthetized, open chest state to facilitate electrode placement for mapping. α-chloralose was given as a bolus (200 mg/kg) and then a constant Infusion at 8 mg/kg/hr (dissolved in polyethylene glycol, MW=200). The femoral vein and artery was cannulated for administration of fluid and drugs and for measurement of ascending aortic pressure, respectively.
The sinus node was clamped and the atrial appendage was paced with a programmable stimulator with constant current outputs at two times diastolic threshold. Pacing rate was ≥200 b/min to control heart rates. Ventricular pacing one pole of a multipolar needle in the normal zone employed an anode (7 cm^2 stainless steel) in the abdominal muscle. Endocardial Effective Refractory Period (ERP) was measured by the standard extrastimulus technique. Late ventricular diastolic threshold was measured during each intervention; the pacing current was four times threshold.
Test sites were chosen along the shaft of 16 pole needles (J. Kassell, Fayetteville, NC); each pole completely surrounds the needle shaft to prevent directionality of needle orientation from recording of adjacent Purkinje strands. Six bipolar electrograms (1 mm spacing) were recorded sequentially down the shaft of the needle by amplifying up to 1000 times, filtering from 3-1300 Hz and recording via oscilloscope during atrial pacing. Four intramural electrograms are recorded on each multipolar needle. Epicardial electrograms are activated latest on each needle. […] Inter-needle distance measured on epicardium varies over 6-10 mm in dogs weighing 12-16 kg.
The endocardium was paced at the base, apical septum and lateral free wall just outside the risk zone. After ERP was determined, the S1-S2 interval was prolonged by 4 msec > ERP and a S3 was added to the protocol initially with an S2-S3 interval equal to 50 msec > S1-S2. […] Normal cardiac muscle ERP was recorded with each intervention. […]

Question: “Ac-D-Tyr-D-Pro-D-4Hyp-Gly-D-Ala-Gly-NH2 [Compound 2]” was tested. Which Effective refractory period (first dog, after the lowest dose (control 150 msec)) did it give?
Answer: 154 ms

Question: And the Effective refractory period (first dog, at the highest and last dose (control 150 msec))?
Answer: 148 ms

Question: And the Effective refractory period (second dog, first site of induction (lateral), throughout the testing period)?
Answer: 163 ms
